Protein sequences, listed by entry. Tags and fused reporters are not part of them.
UniProt P00742, whole entry: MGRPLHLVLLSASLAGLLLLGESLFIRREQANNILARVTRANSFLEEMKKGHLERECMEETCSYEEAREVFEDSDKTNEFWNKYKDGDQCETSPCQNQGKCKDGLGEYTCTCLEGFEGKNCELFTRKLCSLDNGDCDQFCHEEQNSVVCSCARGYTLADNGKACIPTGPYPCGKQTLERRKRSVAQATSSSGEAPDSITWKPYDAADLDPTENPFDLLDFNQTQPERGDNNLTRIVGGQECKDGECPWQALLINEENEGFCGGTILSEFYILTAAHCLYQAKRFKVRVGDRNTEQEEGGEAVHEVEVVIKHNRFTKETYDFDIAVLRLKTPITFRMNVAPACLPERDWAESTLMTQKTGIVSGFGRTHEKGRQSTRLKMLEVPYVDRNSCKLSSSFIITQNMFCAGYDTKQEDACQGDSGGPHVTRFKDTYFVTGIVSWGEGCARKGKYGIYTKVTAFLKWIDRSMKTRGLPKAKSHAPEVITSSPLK
UniProt P00747, whole entry: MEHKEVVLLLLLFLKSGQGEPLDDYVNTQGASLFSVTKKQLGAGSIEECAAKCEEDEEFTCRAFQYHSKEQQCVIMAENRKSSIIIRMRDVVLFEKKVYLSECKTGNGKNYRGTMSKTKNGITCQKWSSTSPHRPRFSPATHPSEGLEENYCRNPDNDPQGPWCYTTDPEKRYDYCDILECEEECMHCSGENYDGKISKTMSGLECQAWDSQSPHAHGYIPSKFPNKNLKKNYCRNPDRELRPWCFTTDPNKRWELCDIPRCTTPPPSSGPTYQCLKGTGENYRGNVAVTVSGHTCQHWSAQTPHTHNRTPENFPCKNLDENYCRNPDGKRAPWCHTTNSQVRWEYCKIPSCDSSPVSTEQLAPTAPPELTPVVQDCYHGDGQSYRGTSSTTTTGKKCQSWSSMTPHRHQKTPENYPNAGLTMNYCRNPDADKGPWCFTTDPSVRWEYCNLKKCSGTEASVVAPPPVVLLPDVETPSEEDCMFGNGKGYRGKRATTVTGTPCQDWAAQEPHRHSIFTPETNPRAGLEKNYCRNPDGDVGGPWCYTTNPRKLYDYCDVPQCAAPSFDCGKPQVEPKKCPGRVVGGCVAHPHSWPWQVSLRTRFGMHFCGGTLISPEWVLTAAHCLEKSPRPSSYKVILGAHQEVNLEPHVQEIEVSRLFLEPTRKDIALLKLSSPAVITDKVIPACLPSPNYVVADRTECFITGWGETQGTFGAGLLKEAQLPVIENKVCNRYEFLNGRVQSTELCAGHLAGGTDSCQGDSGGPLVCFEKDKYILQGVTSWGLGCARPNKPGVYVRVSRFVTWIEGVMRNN
UniProt P00750, whole entry, looked up: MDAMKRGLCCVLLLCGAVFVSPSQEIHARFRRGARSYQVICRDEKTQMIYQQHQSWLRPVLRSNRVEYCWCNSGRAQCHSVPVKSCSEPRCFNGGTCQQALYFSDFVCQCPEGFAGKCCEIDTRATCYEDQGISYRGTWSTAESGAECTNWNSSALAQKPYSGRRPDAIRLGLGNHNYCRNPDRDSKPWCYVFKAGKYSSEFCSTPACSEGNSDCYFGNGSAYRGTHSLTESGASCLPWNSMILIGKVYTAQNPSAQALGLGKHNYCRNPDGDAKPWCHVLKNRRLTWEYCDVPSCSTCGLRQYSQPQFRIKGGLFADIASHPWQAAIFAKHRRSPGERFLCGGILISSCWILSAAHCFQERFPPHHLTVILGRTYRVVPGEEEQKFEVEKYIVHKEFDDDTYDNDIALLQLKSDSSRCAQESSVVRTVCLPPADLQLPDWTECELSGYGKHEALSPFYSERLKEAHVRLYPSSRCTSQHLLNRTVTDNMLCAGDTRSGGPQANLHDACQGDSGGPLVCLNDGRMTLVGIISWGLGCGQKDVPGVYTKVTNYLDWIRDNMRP

In ChEMBL document CHEMBL1138351, “Small, potent, and selective diaryl phosphonate inhibitors for urokinase-type plasminogen activator with in vivo antimetastatic properties” (J Med Chem, 2007):

Columns and labels:
Coagulation factor X = Coagulation factor X (Homo sapiens, UniProt P00742); experiment: Inhibition of factor 10a at 250 uM
Prothrombin = Prothrombin (Homo sapiens, UniProt P00734); experiment: Inhibition of human thrombin at 250 uM
Summary of the method: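 Human plasma thrombin was assayed at 37 °C in Tris pH 8.3. […] Initial rate was read at 405 nm, in duplicate. IC50 was obtained from a four-parameter logistic fit.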

Plasminogen = Plasminogen (Homo sapiens, UniProt P00747); experiment: Inhibition of human plasmin at 250 uM
[1] = target: Tissue-type plasminogen activator (Homo sapiens, UniProt P00750); experiment: Inhibition of human recombinant tPA at 250 uM
[2] = target: Urokinase-type plasminogen activator (Homo sapiens, UniProt P00749)

Row | SMILES | inhibition (Coagulation factor X) [%] | other results
1 | CC(=O)NC(Cc1ccc(NC(=N)N)cc1)P(=O)(Oc1ccccc1)Oc1ccccc1 (stereo not drawn) | 37 | 
2 | COC(=O)NC(Cc1ccc(NC(=N)N)cc1)P(=O)(Oc1ccccc1)Oc1ccccc1 (stereo not drawn) | 57 | 
3 | N=C(N)Nc1ccc(CC(N)P(=O)(Oc2ccccc2)Oc2ccccc2)cc1 (stereo not drawn) | 11 | inhibition (Prothrombin): 41%; inhibition (Plasminogen): 31%; inhibition [1]: 32%
4 | CCOC(=O)NC(Cc1ccc(NC(=N)N)cc1)P(=O)(Oc1ccccc1)Oc1ccccc1 (stereo not drawn) | 62 | 
5 | COC(=O)NC(Cc1ccc(NC(=N)N)cc1)P(=O)(Oc1ccc(NC(C)=O)cc1)Oc1ccc(NC(C)=O)cc1 (stereo not drawn) |  | IC50 [2]: 3.4 nM
